Laboratory results published in publication PMC12526156, “Optimization of the Macrocyclic Tetrapeptide [D-Trp]CJ-15,208 to Prevent Stress-Induced Relapse of Cocaine-Seeking Behavior” (Molecules, 2025).

Chains of the proteins cited; added tags and fusions are not shown.
UniProt P35372, whole entry: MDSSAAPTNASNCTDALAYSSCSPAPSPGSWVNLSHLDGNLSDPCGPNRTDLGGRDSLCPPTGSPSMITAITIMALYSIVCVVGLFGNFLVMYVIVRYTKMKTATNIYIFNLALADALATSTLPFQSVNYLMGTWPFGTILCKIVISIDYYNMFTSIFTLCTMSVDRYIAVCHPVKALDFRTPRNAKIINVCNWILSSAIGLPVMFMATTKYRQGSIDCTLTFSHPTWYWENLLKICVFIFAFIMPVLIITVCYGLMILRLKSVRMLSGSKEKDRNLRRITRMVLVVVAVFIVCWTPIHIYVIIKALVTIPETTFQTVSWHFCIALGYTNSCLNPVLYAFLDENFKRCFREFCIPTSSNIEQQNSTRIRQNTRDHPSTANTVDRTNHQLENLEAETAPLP

Molecular target: human MOR (Homo sapiens, UniProt P35372)
Settings: read-out: Kd for binding to hMOR-CHO membranes

## [^3H][D-Ala^2,N-MePhe^4,glyol]enkephalin [[^3H]DAMGO]
  Kd: 0.556 nM
